Measurements taken from patent US20050238734A1, “Detection of nitrosylated proteins” (University of Vermont and State Agricultural College, priority 2004, published 2005).

Assay: Reduction of GSSG to GSH by ascorbate in HENS buffer, analysed by HPLC
Assay type: physicochemical
Details: for % GSSG reduced 10 mM asc. / GSH μM 10 mM asc.: 10 mM ascorbate; for % GSSG reduced 20 mM asc. / GSH μM 20 mM asc.: 20 mM ascorbate
Procedure: Various solution of GSSG were treated in HENS buffer with either 10 mM or 20 mM ascorbate (“asc”), then analyzed for its potential reduction to GSH by HLPC. […] Thus, the ascorbate-dependent SH biotinylation was believed to be primarily due to SNO, with only a minor contribution of disulfides.

With oxidized glutathione [GSSG] the “fraction of GSSG reduced” value (10 mM or 20 mM ascorbate, HENS buffer, summary of Table 1) was “less than 0.09%”, the “% GSSG reduced 10 mM asc.” value (GSSG 100 μM) was 0.01% and the “GSH μM 10 mM asc.” value (GSSG 100 μM, HENS buffer) was 0.11 µM. The “% GSSG reduced 20 mM asc.” value (GSSG 100 μM) was 0.01%, the “GSH μM 20 mM asc.” value (GSSG 100 μM, HENS buffer) was 0.11 µM and the “% GSSG reduced 10 mM asc.” value (GSSG 500 μM) was 0.08%. For the same substance, the “GSH μM 10 mM asc.” value (GSSG 500 μM, HENS buffer) was 0.96 µM, the “% GSSG reduced 20 mM asc.” value (GSSG 500 μM) was 0.14% and the “GSH μM 20 mM asc.” value (GSSG 500 μM, HENS buffer) was 1.29 µM. For the same substance, the “% GSSG reduced 10 mM asc.” value (GSSG 1000 μM) was 0.09%, the “GSH μM 10 mM asc.” value (GSSG 1000 μM, HENS buffer) was 1.53 µM and the “% GSSG reduced 20 mM asc.” value (GSSG 1000 μM) was 0.17%. The “GSH μM 20 mM asc.” value (GSSG 1000 μM, HENS buffer) was 2.27 µM.
